Measurements from patent publication US7572826B2, “Thiophene-carboxamide derivatives and their use as inhibitors of the enzyme IKK-2” (AstraZeneca AB, priority 2003, dated 2009).

Amino acid sequences for entries named in this document (tags omitted).
UniProt O14920, whole entry: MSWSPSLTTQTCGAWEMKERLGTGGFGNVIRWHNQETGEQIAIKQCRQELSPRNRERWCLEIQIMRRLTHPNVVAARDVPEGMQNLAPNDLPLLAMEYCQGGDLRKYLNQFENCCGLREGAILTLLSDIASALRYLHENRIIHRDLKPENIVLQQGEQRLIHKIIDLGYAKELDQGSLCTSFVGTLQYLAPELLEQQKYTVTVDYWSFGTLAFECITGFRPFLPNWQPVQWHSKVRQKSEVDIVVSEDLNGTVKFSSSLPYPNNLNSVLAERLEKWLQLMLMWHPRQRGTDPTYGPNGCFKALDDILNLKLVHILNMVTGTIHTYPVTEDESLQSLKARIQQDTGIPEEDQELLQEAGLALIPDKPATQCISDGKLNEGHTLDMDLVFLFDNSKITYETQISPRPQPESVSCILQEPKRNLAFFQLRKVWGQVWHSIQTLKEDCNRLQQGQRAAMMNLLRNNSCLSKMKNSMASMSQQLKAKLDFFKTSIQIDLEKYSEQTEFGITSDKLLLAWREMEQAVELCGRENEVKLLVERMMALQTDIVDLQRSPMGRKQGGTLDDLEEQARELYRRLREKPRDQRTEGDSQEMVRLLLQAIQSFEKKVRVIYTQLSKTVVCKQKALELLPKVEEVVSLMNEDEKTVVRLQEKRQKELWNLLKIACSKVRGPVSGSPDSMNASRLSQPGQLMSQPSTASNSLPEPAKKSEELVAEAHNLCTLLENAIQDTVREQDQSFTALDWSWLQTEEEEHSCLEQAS

What was measured:
IKK-2 = IKK-2 (Homo sapiens, UniProt O14920); assay: IKK-2 filter kinase assay; conditions: read-out: Inhibition of IKK-2 IC50, 1 μM ATP, 1-53 GST-IκB substrate
[1] = tested on: human peripheral blood mononuclear cells (PBMCs); assay: Inhibition of LPS-induced TNFα production by PBMCs; conditions: read-out: Activity in PBMC Assay IC50, inhibition of LPS-stimulated TNFα production

Compound | pIC50 (IKK-2) | pIC50 [1]
CN(C)CCOc1ccc(-c2cc(C(N)=O)c(NC(N)=O)s2)cc1 | 6.70 | 6.00
NC(=O)Nc1sc(-c2ccc(OCCN3CCOCC3)cc2)cc1C(N)=O | 6.59 | 5.94
NC(=O)Nc1sc(-c2ccc(OCCN3CCCCC3)cc2)cc1C(N)=O | 6.49 | 5.83

pIC50: −log10 of the molar value.
